In the CheMixHub viscosity set:

Tests used:
[1] = xn = mol fraction of the nth substance listed

CCCCOCCCC
viscosity [mPa·s]
Settings | 298.15 K | 308.15 K | 313.15 K | 318.15 K | 323.15 K
101 kPa | 0.6501 | 0.5918 | – | 0.5206 | –
101.3 kPa | – | – | 0.5715 | – | 0.5079

CCCCOCCCC + CCC(C)=O
viscosity [mPa·s], [1], 101.3 kPa
Settings | x2 = 0.1005 | x2 = 0.2 | x2 = 0.3 | x2 = 0.4 | x2 = 0.5 | x2 = 0.6 | x2 = 0.7 | x2 = 0.8002 | x2 = 0.8998
303.15 K | 0.6078 | 0.5656 | 0.5411 | 0.5123 | 0.4882 | 0.4677 | 0.448 | 0.433 | 0.4036
313.15 K | 0.5347 | 0.5046 | 0.4801 | 0.4584 | 0.4403 | 0.4254 | 0.4039 | 0.392 | 0.3713
323.15 K | 0.4826 | 0.4547 | 0.4348 | 0.4173 | 0.398 | 0.3829 | 0.3693 | 0.3587 | 0.3465

CCCCOCCCC + CCCCCCCC
[1], 101.3 kPa
Settings | viscosity [mPa·s]
293.15 K, x1 = 0.057 | 0.544
293.15 K, x1 = 0.1118 | 0.55
293.15 K, x1 = 0.1947 | 0.56
293.15 K, x1 = 0.2718 | 0.571
293.15 K, x1 = 0.3576 | 0.582
293.15 K, x1 = 0.4202 | 0.592
293.15 K, x1 = 0.4966 | 0.603
293.15 K, x1 = 0.5465 | 0.61
293.15 K, x1 = 0.581 | 0.616
293.15 K, x1 = 0.6246 | 0.623
293.15 K, x1 = 0.7272 | 0.64
293.15 K, x1 = 0.8102 | 0.656
293.15 K, x1 = 0.8957 | 0.67
293.15 K, x1 = 0.9125 | 0.672
293.15 K, x1 = 0.9514 | 0.677
298.15 K, x1 = 0.057 | 0.504
298.15 K, x1 = 0.1118 | 0.51
298.15 K, x1 = 0.1947 | 0.52
298.15 K, x1 = 0.2718 | 0.53
298.15 K, x1 = 0.3576 | 0.54
298.15 K, x1 = 0.4502 | 0.551
298.15 K, x1 = 0.4966 | 0.557
298.15 K, x1 = 0.5465 | 0.564
298.15 K, x1 = 0.581 | 0.569
298.15 K, x1 = 0.6246 | 0.574
298.15 K, x1 = 0.7272 | 0.589
298.15 K, x1 = 0.8102 | 0.605
298.15 K, x1 = 0.8957 | 0.619
298.15 K, x1 = 0.9125 | 0.624
298.15 K, x1 = 0.9514 | 0.634
303.15 K, x1 = 0.057 | 0.481
303.15 K, x1 = 0.1118 | 0.486
303.15 K, x1 = 0.1947 | 0.495
303.15 K, x1 = 0.2718 | 0.503
303.15 K, x1 = 0.3576 | 0.513
303.15 K, x1 = 0.4502 | 0.524
303.15 K, x1 = 0.4966 | 0.53
303.15 K, x1 = 0.5465 | 0.537
303.15 K, x1 = 0.581 | 0.543
303.15 K, x1 = 0.6246 | 0.547
303.15 K, x1 = 0.7272 | 0.561
303.15 K, x1 = 0.8102 | 0.573
303.15 K, x1 = 0.8957 | 0.585
303.15 K, x1 = 0.9125 | 0.588
303.15 K, x1 = 0.9514 | 0.593
308.15 K, x1 = 0.0342 | 0.452
308.15 K, x1 = 0.1439 | 0.461
308.15 K, x1 = 0.1779 | 0.465
308.15 K, x1 = 0.3314 | 0.481
308.15 K, x1 = 0.4037 | 0.489
308.15 K, x1 = 0.4461 | 0.493
308.15 K, x1 = 0.4584 | 0.495
308.15 K, x1 = 0.5005 | 0.499
308.15 K, x1 = 0.6127 | 0.513
308.15 K, x1 = 0.6653 | 0.519
308.15 K, x1 = 0.7483 | 0.529
308.15 K, x1 = 0.8216 | 0.539
308.15 K, x1 = 0.9086 | 0.551
308.15 K, x1 = 0.9771 | 0.56

CCCCOCCCC + CCCCCCCCC
viscosity [mPa·s], [1], 101 kPa
Settings | x1 = 0.1048 | x1 = 0.2085 | x1 = 0.3111 | x1 = 0.4126 | x1 = 0.503 | x1 = 0.6124 | x1 = 0.7108 | x1 = 0.904
298.15 K | 0.6536 | 0.6484 | 0.6431 | 0.6401 | 0.6389 | 0.639 | 0.6411 | 0.6464
308.15 K | 0.5796 | 0.5773 | 0.5746 | 0.5742 | 0.5749 | 0.578 | 0.5818 | 0.5882
318.15 K | 0.5114 | 0.5101 | 0.5076 | 0.507 | 0.5078 | 0.5107 | 0.513 | 0.5185

CCCCOCCCC + CCCCCCCCCC
viscosity [mPa·s], [1], 101 kPa
Settings | x1 = 0.1132 | x1 = 0.2231 | x1 = 0.3298 | x1 = 0.4079 | x1 = 0.5096 | x1 = 0.6084 | x1 = 0.7046 | x1 = 0.7982 | x1 = 0.9118
298.15 K | 0.8032 | 0.7734 | 0.7483 | 0.7282 | 0.7089 | 0.6932 | 0.6773 | 0.6663 | 0.6562
308.15 K | 0.709 | 0.6856 | 0.6645 | 0.6499 | 0.6336 | 0.6207 | 0.6106 | 0.604 | 0.5957
318.15 K | 0.603 | 0.5865 | 0.5701 | 0.5586 | 0.5456 | 0.537 | 0.533 | 0.5289 | 0.5222

CCCCOCCCC + CCCCCCCCCCCC
viscosity [mPa·s], [1], 101 kPa
Settings | x1 = 0.1043 | x1 = 0.2032 | x1 = 0.3143 | x1 = 0.4082 | x1 = 0.5025 | x1 = 0.6112 | x1 = 0.7132 | x1 = 0.8049 | x1 = 0.9036
298.15 K | 1.218 | 1.135 | 1.05 | 0.9785 | 0.9172 | 0.8492 | 0.7899 | 0.7407 | 0.6887
308.15 K | 1.033 | 0.9683 | 0.8991 | 0.8419 | 0.7943 | 0.7421 | 0.6971 | 0.6593 | 0.6193
318.15 K | 0.878 | 0.8239 | 0.7644 | 0.7209 | 0.6809 | 0.6398 | 0.6037 | 0.5754 | 0.5451
